Data: patent publication US5085739A, “Separation of the propyl alcohols from water by azeotropic or extractive distillation” (priority 1991, dated 1992)

How the values were obtained:
[1] = glass perforated plate rectification column (7.3 theoretical plates), isopropanol from water; assay type: physicochemical; conditions: azeotropic mode, 8 hrs
[2] = vapor-liquid equilibrium still, n-propanol-water azeotrope with agent; conditions: n-propanol from water
[3] = vapor-liquid equilibrium still, isopropanol-water azeotrope with agent; conditions: isopropanol from water, agent in vapor-liquid equilibrium still, water as overhead
[4] = glass perforated plate rectification column, n-propanol from water; assay type: physicochemical; conditions: extractive mode, 2 hrs, * n-propanol comes off as overhead

Row | Molecule | Relative Volatility [3] | further results
1 | C=COCCCC | 1.83 | Relative Volatility [1]: 1.33; Relative Volatility ([2]; azeotropic distn.): 3.0
2 | CCCCO [1-Butanol] | 1.43 | –
3 | CCCCCCCCCC(C)=O [2-Undecanone] | 1.26 | –
4 | c1ccc(COCc2ccccc2)cc1 [Benzyl ether] | 1.41 | –
5 | CCCCCC(=O)OCC [Ethyl caproate] | 1.56 | –
6 | CC(=O)OCC(C)C [Isobutyl acetate] | 1.24 | Relative Volatility [4]: 1.21; Relative Volatility ([2]; extractive distn., * brings n-propanol out as overhead): 1.3
7 | C=COCC(C)C [Vinyl isobutyl ether] | 1.57 | Relative Volatility ([2]; azeotropic distn.): 2.7
8 | Butoxypropanol | – | Relative Volatility ([2]; extractive distn., water as overhead): 2.2
